Molecular target: CB1 receptors (Macaca mulatta, UniProt Q71SP5)
Assay: Monkey brain PET with 11C-SD5024, baseline and rimonabant pre-blocked scans
Settings: receptor saturating dose of rimonabant 3 mg/kg i.v.

Chains of the proteins cited; added tags and fusions are not shown.
UniProt Q71SP5, whole entry: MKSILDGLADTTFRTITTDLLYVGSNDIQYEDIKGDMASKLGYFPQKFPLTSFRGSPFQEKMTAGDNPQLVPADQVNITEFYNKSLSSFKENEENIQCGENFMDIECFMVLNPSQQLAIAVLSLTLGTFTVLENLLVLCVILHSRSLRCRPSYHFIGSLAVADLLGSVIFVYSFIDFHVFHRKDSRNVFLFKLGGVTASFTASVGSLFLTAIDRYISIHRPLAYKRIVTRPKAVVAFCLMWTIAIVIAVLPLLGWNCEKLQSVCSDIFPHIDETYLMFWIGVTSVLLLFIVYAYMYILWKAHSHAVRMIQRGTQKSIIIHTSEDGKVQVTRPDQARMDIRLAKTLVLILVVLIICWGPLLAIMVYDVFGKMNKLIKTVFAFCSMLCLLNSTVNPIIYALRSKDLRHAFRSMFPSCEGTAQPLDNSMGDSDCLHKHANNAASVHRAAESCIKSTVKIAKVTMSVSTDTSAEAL

**Q.** How did the “brain uptake of 11C-SD5024 after rimonabant” value turn out when `Cc1c(C(=O)NN2CCCCC2)nn(-c2ccc(Cl)cc2Cl)c1-c1ccc(Cl)cc1` [rimonabant, reference compound] was run?
**A.** markedly reduced

Reference: PMC3849221 (NeuroImage, 2013)
